# Only a part is listed here, and it is no random draw. Active and inactive are the calls of the source.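 Rule for the calls: active = compounds whose normalised, plate-corrected inhibition of enzyme fluorescence in the single-dose primary screen is 50% or more; inactive = the rest.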
# By UniProt entry, the sequences of proteins in these tests, tags left out.
# UniProt P49327, whole entry: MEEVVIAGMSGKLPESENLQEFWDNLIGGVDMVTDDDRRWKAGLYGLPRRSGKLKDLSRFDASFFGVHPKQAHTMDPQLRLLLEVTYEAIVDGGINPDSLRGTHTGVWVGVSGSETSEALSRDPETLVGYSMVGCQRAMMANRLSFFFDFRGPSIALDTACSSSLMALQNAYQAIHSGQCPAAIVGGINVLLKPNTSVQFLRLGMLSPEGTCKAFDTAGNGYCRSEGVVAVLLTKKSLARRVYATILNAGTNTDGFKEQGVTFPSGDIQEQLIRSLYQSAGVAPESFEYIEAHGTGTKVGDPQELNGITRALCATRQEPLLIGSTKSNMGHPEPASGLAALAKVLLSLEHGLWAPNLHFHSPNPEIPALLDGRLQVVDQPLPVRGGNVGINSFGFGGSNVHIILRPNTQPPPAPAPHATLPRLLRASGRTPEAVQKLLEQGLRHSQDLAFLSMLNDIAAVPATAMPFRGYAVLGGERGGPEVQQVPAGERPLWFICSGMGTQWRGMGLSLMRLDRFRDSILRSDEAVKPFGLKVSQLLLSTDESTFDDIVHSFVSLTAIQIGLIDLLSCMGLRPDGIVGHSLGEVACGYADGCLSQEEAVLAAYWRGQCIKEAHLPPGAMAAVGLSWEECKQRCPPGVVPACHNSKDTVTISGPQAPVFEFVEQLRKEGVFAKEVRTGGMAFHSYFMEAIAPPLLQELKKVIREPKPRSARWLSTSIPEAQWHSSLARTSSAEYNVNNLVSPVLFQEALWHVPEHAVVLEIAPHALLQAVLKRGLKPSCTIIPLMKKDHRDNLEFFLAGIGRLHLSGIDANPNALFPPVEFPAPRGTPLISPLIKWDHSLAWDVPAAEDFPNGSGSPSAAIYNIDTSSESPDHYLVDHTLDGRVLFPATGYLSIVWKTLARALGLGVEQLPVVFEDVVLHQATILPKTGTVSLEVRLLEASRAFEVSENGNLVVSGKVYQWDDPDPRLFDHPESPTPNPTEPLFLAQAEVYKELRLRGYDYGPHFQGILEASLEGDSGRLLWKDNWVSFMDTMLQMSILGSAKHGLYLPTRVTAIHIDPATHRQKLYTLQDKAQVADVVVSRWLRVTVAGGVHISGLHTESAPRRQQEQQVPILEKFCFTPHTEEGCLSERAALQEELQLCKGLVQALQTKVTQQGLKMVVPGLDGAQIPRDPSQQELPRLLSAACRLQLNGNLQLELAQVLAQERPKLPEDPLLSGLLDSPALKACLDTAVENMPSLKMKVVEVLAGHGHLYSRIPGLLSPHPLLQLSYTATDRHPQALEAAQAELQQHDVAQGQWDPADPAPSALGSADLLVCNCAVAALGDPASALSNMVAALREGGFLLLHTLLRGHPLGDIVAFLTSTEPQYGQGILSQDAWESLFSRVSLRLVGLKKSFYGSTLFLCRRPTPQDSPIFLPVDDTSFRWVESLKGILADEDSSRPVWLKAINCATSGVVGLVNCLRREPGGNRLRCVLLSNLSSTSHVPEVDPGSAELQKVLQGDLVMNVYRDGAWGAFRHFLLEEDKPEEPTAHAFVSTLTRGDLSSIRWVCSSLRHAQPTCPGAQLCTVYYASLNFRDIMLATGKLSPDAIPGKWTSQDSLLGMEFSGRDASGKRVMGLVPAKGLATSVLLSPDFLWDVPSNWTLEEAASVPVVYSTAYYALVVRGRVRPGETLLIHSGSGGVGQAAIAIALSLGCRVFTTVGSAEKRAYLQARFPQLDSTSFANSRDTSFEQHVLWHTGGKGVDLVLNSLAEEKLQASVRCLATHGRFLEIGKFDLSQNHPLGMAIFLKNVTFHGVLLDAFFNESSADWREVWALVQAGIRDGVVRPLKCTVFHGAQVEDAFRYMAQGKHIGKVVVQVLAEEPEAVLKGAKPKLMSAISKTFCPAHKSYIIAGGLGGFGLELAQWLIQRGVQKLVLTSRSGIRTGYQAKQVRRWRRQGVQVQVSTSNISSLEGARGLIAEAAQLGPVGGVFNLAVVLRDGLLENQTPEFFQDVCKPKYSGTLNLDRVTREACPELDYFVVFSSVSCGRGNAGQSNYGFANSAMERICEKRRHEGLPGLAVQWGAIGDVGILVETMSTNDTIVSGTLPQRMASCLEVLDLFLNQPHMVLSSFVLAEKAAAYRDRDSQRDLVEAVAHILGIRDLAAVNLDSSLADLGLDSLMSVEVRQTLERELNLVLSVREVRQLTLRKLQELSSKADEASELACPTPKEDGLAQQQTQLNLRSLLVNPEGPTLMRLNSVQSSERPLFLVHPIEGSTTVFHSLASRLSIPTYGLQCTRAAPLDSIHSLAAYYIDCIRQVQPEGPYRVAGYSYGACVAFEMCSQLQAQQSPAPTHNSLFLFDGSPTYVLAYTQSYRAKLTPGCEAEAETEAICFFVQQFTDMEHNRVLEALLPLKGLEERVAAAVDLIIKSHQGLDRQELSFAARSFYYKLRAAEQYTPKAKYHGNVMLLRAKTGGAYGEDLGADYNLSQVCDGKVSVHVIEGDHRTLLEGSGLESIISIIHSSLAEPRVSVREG
# Target: Fatty acid synthase (Homo sapiens) (UniProt P49327)
# Assay: FAS thioesterase domain inhibitors, primary screen, biochemical, fluorescence intensity, uHTS (AID 602261);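 note: 0% = DMSO with enzyme and 100% = substrate without enzyme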
# Conditions: recombinant FAS-TE, OMFH fluorogenic substrate, fluorescence endpoint; at 15 µM; hits give high values
row,SMILES,inhibition
1,COc1ccc(CN(CCCl)CCCl)cc1Cl,inactive: 0.4%
2,CN(C)c1cccc(C(=O)NCC2(N3CCCCC3)CCCCC2)c1,inactive: -4.4%
3,COc1cc(OC)c(C(=O)NCC2(N(C)C)CCCCC2)cc1OC,inactive: -3.5%
4,O=C(NCC1(N2CCOCC2)CCCCC1)c1cc(F)c(F)cc1Cl,inactive: 1.7%
5,CCC(c1nnnn1C(C)(C)C)N1CCC(n2c(=O)[nH]c3ccccc32)CC1 (centres undefined),inactive: 0.7%
6,CCCCn1nnnc1C(c1ccnc2ccccc12)N1CCC(n2c(=O)[nH]c3ccccc32)CC1 (centres undefined),inactive: -1.1%
7,O=C(NCC1(N2CCCCC2)CCCCC1)c1cccc(C(F)(F)F)c1,inactive: 0.3%
8,COc1cc(C(=O)NCC2(N3CCCCC3)CCCCC2)ccc1OC(F)F,inactive: -2.8%
9,O=C(NCC1(N2CCOCC2)CCCCC1)c1cc(=O)[nH]c2ccccc12,inactive: -10.4%
10,CCCCn1nnnc1C(c1cccc2ccccc12)N1CCC(n2c(=O)[nH]c3ccccc32)CC1 (centres undefined),active: 67.2%
11,CN1CCN(CCOC(=O)C(O)(c2ccccc2)c2ccccc2)CC1,inactive: -10%
12,CC(C)c1ccc(C(=O)NCC2(N3CCOCC3)CCCCC2)cc1,inactive: 1.5%
13,COc1ccc(NC2CCN(C(=O)OC(C)(C)C)CC2)cc1,inactive: -5.4%
14,CC(C)(C)n1nnnc1C(c1ccccc1OC(F)(F)F)N1CCC(n2c(=O)[nH]c3ccccc32)CC1 (centres undefined),inactive: 26.4%
15,O=C(NCC1(N2CCCCC2)CCCCC1)c1ccc(OC(F)F)cc1,inactive: -8.8%
16,CCN1CCC(Nc2ccc(Cl)cc2)CC1,inactive: -1.6%
17,N#CC1(Nc2ccccc2)CCN(CCc2ccccc2)CC1,inactive: 0.8%
18,O=c1[nH]c2ccccc2n1C1CCN(C(c2ccccc2OC(F)(F)F)c2nnnn2C2CCCC2)CC1 (centres undefined),inactive: 20.1%
19,CSc1ccc(C(=O)NCC2(N3CCOCC3)CCCCC2)cc1,inactive: -1.7%
20,O=C(NCC1(N2CCCCC2)CCCCC1)c1cccc([N+](=O)[O-])c1,inactive: -1.2%
21,O=c1[nH]c2ccccc2n1C1CCN(C(c2ccccc2)c2nnnn2C2CCCCC2)CC1 (centres undefined),inactive: 34.3%
22,COc1cc(C(=O)NCC2(N(C)C)CCCCC2)ccc1OC(F)F,inactive: -7.5%
23,CCOC(=O)N1CCC(Nc2cccc(C)c2)CC1,inactive: -3.3%
24,O=c1[nH]c2ccccc2n1C1CCN(C(c2cccc3ccccc23)c2nnnn2C2CCCC2)CC1 (centres undefined),active: 71.7%
25,CC(C)(C)n1nnnc1C(c1ccccc1)N1CCC(n2c(=O)[nH]c3ccccc32)CC1 (centres undefined),inactive: 5.8%
26,O=C1CCN(Cc2ccccc2)CC1,inactive: -1.9%
27,CCOc1ccc(C)cc1CN(CCCl)CCCl,inactive: -1%

row,SMILES,inhibition
1,O=C(NCC1(N2CCCCC2)CCCCC1)c1ccc(F)cc1,inactive: -1.9%
2,O=P1(N(CCCl)CCCl)SCCCS1,inactive: -4.4%
3,CCCCn1nnnc1C(c1cc2ccccc2o1)N1CCC(n2c(=O)[nH]c3ccccc32)CC1 (centres undefined),inactive: 36.3%
4,CCCCOc1ccc(C(=O)NCC2(N3CCOCC3)CCCCC2)cc1,inactive: 6.2%
5,COc1ccc(NC2CCN(CCc3ccccc3)CC2)c(OC)c1,inactive: -10.6%
6,CCOC(=O)N1CCC(Nc2ccc(F)cc2)CC1,inactive: -2.7%
7,O=c1[nH]c2ccccc2n1C1CCN(C(c2ccccc2OC(F)(F)F)c2nnnn2C2CCCCC2)CC1 (centres undefined),inactive: 29%
8,O=C(NCC1(N2CCCCC2)CCCCC1)c1ccc(Cl)nc1,inactive: -5.9%
9,Cc1cc(C)cc(N(C(=O)c2ccccc2)C2CCN(C(=O)OC(C)(C)C)CC2)c1,inactive: 14.3%
10,O=C(NCC1(N2CCOCC2)CCCCC1)c1cc2ccccc2o1,inactive: -1.3%
11,O=C(OC1CN2CCC1CC2)C1c2ccccc2Oc2ccccc21 (centres undefined),inactive: -4.3%
12,O=c1[nH]c2ccccc2n1C1CCN(C(c2cc3ccccc3o2)c2nnnn2C2CCCCC2)CC1 (centres undefined),active: 69.4%
13,N#CC1(Nc2ccccc2)CCN(Cc2ccccc2)CC1,inactive: -0.1%
14,O=C(NCC1(N2CCCCC2)CCCCC1)c1ccc(Cl)s1,inactive: -3.7%
15,COc1ccc(Cl)cc1C(=O)NCC1(N2CCOCC2)CCCCC1,inactive: 14.5%
16,CCOC(=O)N1CCC(Nc2ccc(OC)cc2)CC1,inactive: -9.9%
17,CCCCn1nnnc1C(c1ccc(OC)cc1)N1CCC(n2c(=O)[nH]c3ccccc32)CC1 (centres undefined),inactive: -8.7%
18,COc1ccc(C(=O)NCC2(N3CCCCC3)CCCCC2)cc1,inactive: -3.5%
19,CCC(c1nnnn1C1CCCC1)N1CCC(n2c(=O)[nH]c3ccccc32)CC1 (centres undefined),inactive: -2.7%
20,CC(C)(C)OC(=O)N1CCC(N(C(=O)c2ccccc2)c2ccc(F)cc2)CC1,inactive: -0.4%
21,COc1ccc(C(=O)NCC2(N3CCCCC3)CCCCC2)c(OC)c1OC,inactive: -3%
22,O=C(NCC1(N2CCCCC2)CCCCC1)c1ccc(=O)[nH]c1,inactive: -6.7%
23,CCCCn1nnnc1C(c1cccs1)N1CCC(n2c(=O)[nH]c3ccccc32)CC1 (centres undefined),inactive: 4.2%
24,O=C(NCC1(N2CCCCC2)CCCCC1)c1cccs1,inactive: -2.5%
25,CCCCn1nnnc1C(CC)N1CCC(n2c(=O)[nH]c3ccccc32)CC1 (centres undefined),inactive: -7.8%
26,CSc1ccccc1C(=O)NCC1(N2CCCCC2)CCCCC1,inactive: -0.3%
27,Cc1cccc(NC2(C#N)CCN(Cc3ccccc3)CC2)c1,inactive: 7.5%

# — PubChem BioAssay AID602261 (Sanford-Burnham Center for Chemical Genomics, 2012)
